The text below walks through data of PMC5630639, “Structure-Activity Relationship Studies of β-Lactam-azide Analogues as Orally Active Antitumor Agents Targeting the Tubulin Colchicine Site” (Scientific Reports, 2017).

For the experiment, the system named is colchicine-binding site of β-tubulin. The experiment in a line: EBI competition assay. The class given is cell-based, human. The note with it: 10 μM, 2 h; EBI 100 μM.

Regarding `COc1cc2c(c(OC)c1OC)-c1ccc(OC)c(=O)cc1[C@@H](NC(C)=O)CC2` [colchicine], the “formation of the EBI: β-tubulin adduct” value is recorded as “disappearance of the adduct band”.
